In paper PMC2377083, “IDN 5390: an oral taxane candidate for protracted treatment schedules” (British Journal of Cancer, 2003):

Conditions: s.c. delivery

Question: Which local vesicant toxicity does the source give for `CC(=O)O[C@@]1([C@@H]2/C(C)=C(/O)C(=O)C3=C(C)[C@@H](OC(=O)[C@H](O)[C@H](CC(C)C)NC(=O)OC(C)(C)C)C[C@@](O)([C@H]2OC(=O)c2ccccc2)C3(C)C)CO[C@@H]1CCO` [IDN 5390, 13-(N-Boc-β-isobutylisoserinyl)-10β-dehydro-C-seco-10-deacetylbaccatin III] here?
Answer: no local vesicant toxicity was observed
